Target: BRD4 (Homo sapiens, UniProt O60885)
Experiment: BRD4 degradation assay in EOL1 cells (immunofluorescence imaging)
Details: read-out: BRD4 degradation in EOL1 cells (DC50); EoL-1 eosinophilic leukemia cells, 4 hours treatment, nuclear BRD4 immunofluorescence
Experimental: BRD4 Degradation Assay in EOL1 Cells
EoL-1 eosinophilic leukemia cells were seeded on day 1 at a density of 45,000 cells per well in Corning PureCoat Amine Microplates, (Corning #354719) in 45 μL/well of assay media (RPMI, 10% FBS, containing L-glutamine). After cells attached to cell plate, compounds were serially diluted ⅓ in dimethylsulfoxide (DMSO) to create 20-point dilutions across a 384 well v-bottom polypropylene microplate (Greiner #781091). 2 μL of each sample from the serial dilution was transferred to 98 μL of assay media as an intermediate dilution. 5 μL of each well of the intermediate dilution was added to 45 μL of cell plate. Columns 1, 2, 23 and 24 were treated with only 0.2% final concentration of DMSO for data normalization as “neutral controls”. After compound treatment, cell plates were stored in a 37° C. incubator for 4 hours. […]
On day-2 samples were washed 3 times with 100 μL/well of PBS. […] Quantitative fluorescence imaging of BRD4 was carried out using an Opera Phenix High-Content Screening System. […] Mean 488 intensity of BRD4 quantitated in nuclear region. […]
The individual topological polar surface area (TPSA) and cLogP values were calculated using Chemdraw v. […]

Row | Structure (SMILES) | DC50
1 | Cc1ncsc1-c1ccc([C@@H]2NC(=O)[C@@H]3C[C@@H](O)CN3C(=O)[C@H](C(C)(C)C)NC(=O)CCOCCNC(=O)[C@@H](CNC(=O)C[C@@H]3N=C(c4ccc(Cl)cc4)c4c(sc(C)c4C)-n4c(C)nnc43)NC(=O)CNC2=O)cc1 | > 20 µM
2 | Cc1sc2c(c1C)C(c1ccc(Cl)cc1)=N[C@@H](CC(=O)NC[C@H]1NC(=O)CNC(=O)C(C)(C)NC(=O)[C@@H]3C[C@@H](O)CN3C(=O)[C@H](C(C)(C)C)NC(=O)CSC[C@H](C(N)=O)NC1=O)c1nnc(C)n1-2 | < 1 µM

Reference: US12187816B2, “Macrocyclic compounds and methods of use thereof” (Genentech, Inc., priority 2020, dated 2025)
